Experiment: Other analytes: transdermal collection levels versus serum levels
[1] = first group of subjects (no condition given)

With “Human Chorionic Gonadotropin: endogenous hormone analyte” the Serum levels [1] was 0.01-0.9 mIU/ml, the Transdermal collection levels [1] was 0.002-0.08 mIU/ml and the Serum levels (second group: females pregnant) was 1.5-100 mIU/ml females. The Transdermal collection levels (second group: females pregnant) was 0.15-11 mIU/ml.
